Key:
H1975 cells = details: H1975, 0.1 μM and 1 μM, two weeks, agar
H1650 cells = details: H1650, 0.1 μM and 1 μM, two weeks, agar

CN(C)C/C=C/C(=O)Nc1cc2c(Nc3ccc(F)c(Cl)c3)ncnc2cc1O[C@H]1CCOC1 [BIBW-2992]
reduction of cell colony size, anchorage-independent growth (H1975 cells): reduction of cell colony size formation
reduction of cell colony size, anchorage-independent growth (H1650 cells): reduction of cell colony size formation
